The values that follow come from patent publication US20230365958.

The chains behind the UniProt entries cited, without tags or fusion partners.
human alpha-1-anti-trypsin, P01009, UniProt P01009, whole entry, looked up: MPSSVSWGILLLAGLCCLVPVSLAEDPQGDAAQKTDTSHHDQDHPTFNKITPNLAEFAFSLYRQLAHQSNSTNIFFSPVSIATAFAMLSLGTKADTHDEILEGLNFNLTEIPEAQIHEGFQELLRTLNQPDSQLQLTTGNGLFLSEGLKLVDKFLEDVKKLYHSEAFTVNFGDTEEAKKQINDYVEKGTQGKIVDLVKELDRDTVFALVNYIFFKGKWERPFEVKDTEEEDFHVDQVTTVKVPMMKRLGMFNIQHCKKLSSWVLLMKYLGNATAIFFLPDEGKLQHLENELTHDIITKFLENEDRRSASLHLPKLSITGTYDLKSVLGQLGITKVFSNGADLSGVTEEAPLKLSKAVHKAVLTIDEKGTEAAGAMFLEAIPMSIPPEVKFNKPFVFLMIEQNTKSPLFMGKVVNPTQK

In the data set the target is human alpha-1-anti-trypsin, P01009.

B1: wild-type human neutrophil elastase (ELANE) (protein)
chain: IVGGRRARPHAWPFMVSLQLRGGHFCGATLIAPNFVMSAAHCVANVNVRAVRVVLGAHNLSRREPTRQVFAVQRIFENGYDPVNLLNDIVILQLNGSATINANVQVAQLPAQGRRLGNGVQCLAMGWGLLGRNRGIASVLQELNVTVVTSLCRRSNVCTLVRGRQAGVCFGDSGSPLVCNGLIHGIASFVRGGCASGLYPDAFAPVAQFVNWIDSIIQ
Turning to B1, the Slope (linear regression of the decrease in enzyme activity versus A1AT concentration, 0-20 nM A1AT, colorimetric substrate assay) is -3.76.
